The source of these data is patent publication US9725457B2, “6-amido derivatives of 4, 5-a epoxymorphinans for the treatment of pain” (Sloan-Kettering Institute for Cancer Research, priority 2010, dated 2017).

By UniProt entry, the sequences of proteins in these tests, tags left out.
UniProt P32300, whole entry: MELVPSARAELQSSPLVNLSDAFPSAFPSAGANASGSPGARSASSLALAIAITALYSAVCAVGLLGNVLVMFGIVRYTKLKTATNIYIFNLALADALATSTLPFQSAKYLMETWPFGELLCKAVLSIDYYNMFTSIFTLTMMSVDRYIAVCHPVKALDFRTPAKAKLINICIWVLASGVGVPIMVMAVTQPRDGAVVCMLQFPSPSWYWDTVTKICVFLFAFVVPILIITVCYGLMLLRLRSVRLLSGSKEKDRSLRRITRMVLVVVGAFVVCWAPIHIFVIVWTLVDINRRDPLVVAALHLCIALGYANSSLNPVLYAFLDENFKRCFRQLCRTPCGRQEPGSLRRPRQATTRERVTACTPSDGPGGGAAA

As usually defined, the Ki is a measure of affinity in units of concentration, obtained from inhibition or displacement.

The target in the assay is T1, DOR (delta opioid receptor), DOR1-CHO (Mus musculus, UniProt P32300).
T1 construct: expressed in transfected cells; host or cells: CHO
In words: Competition binding in DOR-CHO, 125I-SMGP1 radioligand. As for the experimental part:
Receptor-Binding Assays: Competition-binding assays in MOR-CHO (mu), DOR-CHO (delta) and KOR-CHO (kappa) were performed at 25° C. in 50 mM potassium phosphate buffer, pH 7.4, containing 5 mM magnesium sulfate (only in the case of CHO-MOR). Specific binding was defined as the difference between total binding and nonspecific binding, determined in the presence of 8 μM levallorphan. […] Protein concentrations were generally 20-40 μg/mL, incubation times were 90 minutes for all assays. […] Specific binding was defined as the difference between total binding and nonspecific binding, determined in the presence of 8 μM levallorphan. […] Kd, Bmax, and Ki values were calculated by nonlinear regression analysis (GraphPadPrism).

Turning to `C=CCN1CCC23c4c5ccc(O)c4OC2C(NC(=O)c2ccc(-c4ccccc4)cc2)CCC3(O)C1C5` (stereo not shown) [SMGP 40], the Ki is 0.0192 µM. This lies in the double-digit nanomolar range.
